By UniProt entry, the sequences of proteins in these tests, tags left out. Where a name states a change or a piece, a line headed by the entry shows the natural chain unless it says otherwise.
UniProt P30872: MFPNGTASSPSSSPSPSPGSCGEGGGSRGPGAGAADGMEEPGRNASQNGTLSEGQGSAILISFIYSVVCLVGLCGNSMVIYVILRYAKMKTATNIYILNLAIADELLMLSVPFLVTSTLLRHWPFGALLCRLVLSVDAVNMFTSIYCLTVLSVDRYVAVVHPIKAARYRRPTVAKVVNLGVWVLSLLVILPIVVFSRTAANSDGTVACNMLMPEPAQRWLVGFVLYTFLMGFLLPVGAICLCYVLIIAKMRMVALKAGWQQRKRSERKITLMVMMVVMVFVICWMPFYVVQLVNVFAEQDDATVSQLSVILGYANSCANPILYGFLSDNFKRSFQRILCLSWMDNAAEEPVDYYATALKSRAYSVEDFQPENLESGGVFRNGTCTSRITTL
UniProt P32745: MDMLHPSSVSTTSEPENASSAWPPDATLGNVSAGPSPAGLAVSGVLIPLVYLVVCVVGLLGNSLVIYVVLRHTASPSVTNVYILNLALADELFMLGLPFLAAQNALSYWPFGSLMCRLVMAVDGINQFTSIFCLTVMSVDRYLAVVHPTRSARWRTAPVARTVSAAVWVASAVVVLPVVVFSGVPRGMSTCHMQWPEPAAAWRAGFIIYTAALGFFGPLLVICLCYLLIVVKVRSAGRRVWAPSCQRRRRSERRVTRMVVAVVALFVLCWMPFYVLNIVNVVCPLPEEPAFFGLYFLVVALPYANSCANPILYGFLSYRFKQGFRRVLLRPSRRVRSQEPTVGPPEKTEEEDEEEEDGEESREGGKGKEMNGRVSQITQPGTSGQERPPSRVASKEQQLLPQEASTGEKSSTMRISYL
UniProt P31391: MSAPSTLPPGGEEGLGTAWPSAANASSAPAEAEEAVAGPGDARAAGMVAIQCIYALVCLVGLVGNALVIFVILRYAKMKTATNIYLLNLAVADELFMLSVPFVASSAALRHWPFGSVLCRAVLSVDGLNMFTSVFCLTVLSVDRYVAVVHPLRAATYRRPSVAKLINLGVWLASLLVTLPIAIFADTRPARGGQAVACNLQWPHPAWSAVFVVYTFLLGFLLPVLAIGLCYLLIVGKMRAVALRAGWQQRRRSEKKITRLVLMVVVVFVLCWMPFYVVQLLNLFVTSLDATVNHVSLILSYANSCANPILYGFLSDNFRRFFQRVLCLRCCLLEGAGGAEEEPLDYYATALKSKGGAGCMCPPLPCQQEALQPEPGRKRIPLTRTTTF
UniProt P35346: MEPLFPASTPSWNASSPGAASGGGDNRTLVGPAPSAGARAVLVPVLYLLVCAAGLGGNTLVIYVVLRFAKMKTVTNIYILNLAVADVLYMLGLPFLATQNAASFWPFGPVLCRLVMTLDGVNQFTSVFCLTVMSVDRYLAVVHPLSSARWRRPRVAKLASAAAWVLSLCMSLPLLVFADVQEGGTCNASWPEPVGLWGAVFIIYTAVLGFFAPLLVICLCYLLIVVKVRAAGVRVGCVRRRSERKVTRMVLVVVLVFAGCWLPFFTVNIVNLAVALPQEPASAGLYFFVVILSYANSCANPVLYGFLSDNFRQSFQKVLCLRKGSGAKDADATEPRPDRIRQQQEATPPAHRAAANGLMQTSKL
UniProt P30874: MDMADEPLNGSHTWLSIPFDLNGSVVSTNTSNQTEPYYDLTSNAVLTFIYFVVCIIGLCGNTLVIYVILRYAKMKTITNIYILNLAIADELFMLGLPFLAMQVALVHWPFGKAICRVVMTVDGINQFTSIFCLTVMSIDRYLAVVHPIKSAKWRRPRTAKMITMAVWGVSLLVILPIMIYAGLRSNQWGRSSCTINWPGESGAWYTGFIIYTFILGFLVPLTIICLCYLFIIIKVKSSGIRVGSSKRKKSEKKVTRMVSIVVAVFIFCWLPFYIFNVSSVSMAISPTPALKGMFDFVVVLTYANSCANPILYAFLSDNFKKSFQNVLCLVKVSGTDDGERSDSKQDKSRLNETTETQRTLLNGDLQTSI

According to paper PMC11336141:

Tests used:
human SSTR1 = target: T1, human SSTR1 (Homo sapiens, UniProt P30872); assay: PRESTO-Tango β-arrestin recruitment assay, hSSTR1; assay type: cell-based; details: HTLA cells
T1 construct: Tango cassette (PRESTO-Tango template of Kroeze et al. 2015); Bryan Roth (Addgene) Addgene kit # 1000000068; host or cells: HTLA cells
Excerpt: (§1) HTLA cells were given by Prof.
(§2) The assay was done as described in ref. [12].

human SSTR3 = target: T2, human SSTR3 (Homo sapiens, UniProt P32745); assay: PRESTO-Tango β-arrestin recruitment assay, hSSTR3; assay type: cell-based; details: HTLA cells
T2 construct: Tango cassette (PRESTO-Tango template of Kroeze et al. 2015); Bryan Roth (Addgene) Addgene kit # 1000000068; host or cells: HTLA cells
Excerpt: as §1, §2

human SSTR4 = target: T3, human SSTR4 (Homo sapiens, UniProt P31391); assay: PRESTO-Tango β-arrestin recruitment assay, hSSTR4; assay type: cell-based; details: HTLA cells
T3 construct: Tango cassette (PRESTO-Tango template of Kroeze et al. 2015); Bryan Roth (Addgene) Addgene kit # 1000000068; host or cells: HTLA cells
Excerpt: as §1, §2

human SSTR5 = target: T4, human SSTR5 (Homo sapiens, UniProt P35346); assay: PRESTO-Tango β-arrestin recruitment assay, hSSTR5; assay type: cell-based; details: HTLA cells
T4 construct: Tango cassette (PRESTO-Tango template of Kroeze et al. 2015); Bryan Roth (Addgene) Addgene kit # 1000000068; host or cells: HTLA cells
Excerpt: as §1, §2

human SSTR1-5 = assay: PRESTO-Tango β-arrestin recruitment assay, panel hSSTR1-5 (selectivity); assay type: cell-based; details: hSSTR1-5, β-arrestin recruitment
[1] = Solubility in aqueous solutions (observation); details: comparison of des-glyco nG1, pG1 and venom fraction
human SSTR2 = human SSTR2 (Homo sapiens, UniProt P30874); assay: PRESTO-Tango β-arrestin recruitment assay, hSSTR2; details: for activation of hSSTR2 in words: PRESTO-Tango, HTLA cells

## CC(C)C[C@H](NC(=O)[C@H](CCCNC(=N)N)NC(=O)[C@H](CCC(N)=O)NC(=O)[C@H](CCC(=O)O)NC(=O)[C@@H]1CCCN1C(=O)[C@H](C)NC(=O)[C@@H]1C[C@@H](O)CN1C(=O)[C@@H](NC(=O)[C@@H](NC(=O)[C@H](CC(C)C)NC(=O)[C@H](CC(C)C)NC(=O)[C@@H](NC(=O)[C@H](C)NC(=O)[C@H](CC(=O)O)NC(=O)[C@H](CC(C)C)NC(=O)[C@H](CC(C)C)NC(=O)[C@@H](NC(=O)[C@H](CC(=O)O)NC(=O)[C@@H](NC(=O)[C@@H]1CCC(=O)N1)[C@@H](C)O)C(C)C)[C@@H](C)O)[C@@H](C)O)[C@@H](C)O)C(=O)N[C@@H](Cc1ccccc1)C(=O)N[C@H]1CSSC[C@@H](C(=O)N[C@@H](Cc2c[nH]c3ccccc23)C(=O)N2C[C@H](O)C[C@H]2C(=O)N[C@@H](CCCNC(=N)N)C(=O)N2C[C@H](O)C[C@H]2C(=O)N[C@@H](Cc2ccc(O)cc2)C(=O)N2CCC[C@H]2C(=O)N[C@@H](Cc2c[nH]c3ccccc23)C(N)=O)NC(=O)[C@H](CO)NC(=O)[C@H](CCCCN)NC(=O)[C@@H](Cc2c[nH]c3ccccc23)NC(=O)[C@H](Cc2ccccc2)NC1=O [des-glyco nG1]
Human SSTR1
  activation of SSTR1 in words: weak activation
Human SSTR3
  activation of SSTR3 in words: weak activation
Human SSTR4
  activation of SSTR4 in words: weak activation
Human SSTR5
  activation of SSTR5 in words: weak activation
Human SSTR1-5
  agonism / selectivity in words: several orders of magnitude more potent at
Human SSTR1-5; listed as Des-glyco nG1
  agonism / selectivity in words: slightly lower potencies than the venom fraction while retaining its selectivity for the hSSTR2
[1]
  solubility in aqueous solutions in words: did not observe any obvious differences in the solubility
Human SSTR2
  activation of hSSTR2 in words: only slightly less potent at activating the
Human SSTR2; listed as Des-glyco nG1
  activation of hSSTR2 in words: retains potent activation of hSSTR2
Human SSTR2; Table S9
  Hill Slope: 1.09 ± 0.11
  Span ± S.E.M.: 97.20 ± 3.16
Human SSTR2; read-out: Emax ± S.E.M., Table S9, relative to SS-14
  Emax: 97.1 ± 2.65%
